CycPeptMPDB entries from one study

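Lipid, pH, incubation time, direction and concentration are not recorded in the data file. Other peptides of the study may be missing here. Peptides that the database sets to -10, its floor, are left out.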

PAMPA is the parallel artificial membrane permeability assay, which has no cells and reads passive diffusion.
P is given in units of 10^-6 cm/s (from log10 values with two decimals); larger means faster passage.

{"smiles": "CC(=O)N1CCC[C@@H]1C(=O)N(C)[C@@H](CC(C)C)C(=O)N[C@@H]1C(=O)N[C@H](CC(C)C)C(=O)N[C@@H](CC(C)C)C(=O)N[C@@H](CC(C)C)C(=O)N(C)[C@@H](C)C(=O)N[C@@H](CC(C)C)C(=O)N2CCC[C@@H]2C(=O)O[C@@H]1C", "PAMPA (10^-6 cm/s)": "1.2"}
{"smiles": "CC(=O)N1CCC[C@H]1C(=O)N(C)[C@H](CC(C)C)C(=O)N[C@@H]1C(=O)N[C@@H](CC(C)C)C(=O)N(C)[C@@H](CC(C)C)C(=O)N[C@@H](CC(C)C)C(=O)N(C)[C@H](C)C(=O)N[C@H](CC(C)C)C(=O)N2CCC[C@H]2C(=O)O[C@@H]1C", "PAMPA (10^-6 cm/s)": "1.7"}
{"smiles": "CC(=O)N1CCC[C@@H]1C(=O)N(C)[C@@H](CC(C)C)C(=O)N[C@@H]1C(=O)N[C@@H](CC(C)C)C(=O)N(C)[C@@H](CC(C)C)C(=O)N[C@@H](CC(C)C)C(=O)N(C)[C@H](C)C(=O)N[C@@H](CC(C)C)C(=O)N2CCC[C@@H]2C(=O)O[C@@H]1C", "PAMPA (10^-6 cm/s)": "3.5"}
{"smiles": "CC(=O)N1CCC[C@H]1C(=O)N[C@@H]1C(=O)N[C@H](CC(C)C)C(=O)N(C)[C@@H](CC(C)C)C(=O)N(C)[C@@H](CC(C)C)C(=O)N[C@@H](CC(C)C)C(=O)N(C)[C@H](C)C(=O)N[C@@H](CC(C)C)C(=O)N2CCC[C@@H]2C(=O)O[C@@H]1C", "PAMPA (10^-6 cm/s)": "2.7"}
{"smiles": "CC(=O)N1CCC[C@@H]1C(=O)N(C)[C@@H](CC(C)C)C(=O)N[C@@H]1C(=O)N[C@H](CC(C)C)C(=O)N(C)[C@H](CC(C)C)C(=O)N[C@@H](CC(C)C)C(=O)N(C)[C@@H](C)C(=O)N[C@H](CC(C)C)C(=O)N2CCC[C@H]2C(=O)O[C@@H]1C", "PAMPA (10^-6 cm/s)": "6.3"}
{"smiles": "CC(=O)N1CCC[C@@H]1C(=O)N(C)[C@H](CC(C)C)C(=O)N[C@@H]1C(=O)N[C@H](CC(C)C)C(=O)N(C)[C@H](CC(C)C)C(=O)N[C@H](CC(C)C)C(=O)N[C@H](C)C(=O)N[C@H](CC(C)C)C(=O)N2CCC[C@@H]2C(=O)O[C@@H]1C", "PAMPA (10^-6 cm/s)": "0.071"}
{"smiles": "CC(=O)N1CCC[C@H]1C(=O)N(C)[C@@H](CC(C)C)C(=O)N[C@@H]1C(=O)N[C@@H](CC(C)C)C(=O)N[C@@H](CC(C)C)C(=O)N(C)[C@@H](CC(C)C)C(=O)N[C@@H](C)C(=O)N[C@@H](CC(C)C)C(=O)N2CCC[C@@H]2C(=O)O[C@@H]1C", "PAMPA (10^-6 cm/s)": "5.9"}
{"smiles": "CC(=O)N[C@@H]1C(=O)N2CCC[C@H]2C(=O)N(C)[C@H](CC(C)C)C(=O)N[C@H](CC(C)C)C(=O)N[C@@H](CC(C)C)C(=O)N(C)[C@@H](CC(C)C)C(=O)N(C)[C@@H](C)C(=O)N[C@@H](CC(C)C)C(=O)N2CCC[C@@H]2C(=O)O[C@@H]1C", "PAMPA (10^-6 cm/s)": "0.29"}
{"smiles": "CC(=O)N1CCC[C@H]1C(=O)N[C@@H]1C(=O)N[C@H](CC(C)C)C(=O)N[C@H](CC(C)C)C(=O)N[C@H](CC(C)C)C(=O)N[C@H](CC(C)C)C(=O)N[C@H](C)C(=O)N[C@@H](CC(C)C)C(=O)N2CCC[C@@H]2C(=O)O[C@@H]1C", "PAMPA (10^-6 cm/s)": "1.1"}
{"smiles": "CC(=O)N1CCC[C@@H]1C(=O)N(C)[C@@H](CC(C)C)C(=O)N[C@@H]1C(=O)N(C)[C@H](CC(C)C)C(=O)N(C)[C@H](CC(C)C)C(=O)N[C@@H](CC(C)C)C(=O)N(C)[C@H](C)C(=O)N[C@@H](CC(C)C)C(=O)N2CCC[C@@H]2C(=O)O[C@@H]1C", "PAMPA (10^-6 cm/s)": "3"}
{"smiles": "CC(=O)N1CCC[C@H]1C(=O)N(C)[C@@H](CC(C)C)C(=O)N[C@@H]1C(=O)N[C@@H](CC(C)C)C(=O)N(C)[C@@H](CC(C)C)C(=O)N[C@@H](CC(C)C)C(=O)N(C)[C@@H](C)C(=O)N[C@@H](CC(C)C)C(=O)N2CCC[C@@H]2C(=O)O[C@@H]1C", "PAMPA (10^-6 cm/s)": "0.93"}
{"smiles": "CC(=O)N1CCC[C@@H]1C(=O)N(C)[C@H](CC(C)C)C(=O)N[C@@H]1C(=O)N(C)[C@H](CC(C)C)C(=O)N(C)[C@H](CC(C)C)C(=O)N(C)[C@@H](CC(C)C)C(=O)N(C)[C@@H](C)C(=O)N[C@@H](CC(C)C)C(=O)N2CCC[C@@H]2C(=O)O[C@@H]1C", "PAMPA (10^-6 cm/s)": "2.8"}
{"smiles": "CC(=O)N1CCC[C@H]1C(=O)N(C)[C@H](CC(C)C)C(=O)N[C@@H]1C(=O)N[C@H](CC(C)C)C(=O)N[C@@H](CC(C)C)C(=O)N[C@@H](CC(C)C)C(=O)N(C)[C@H](C)C(=O)N[C@H](CC(C)C)C(=O)N2CCC[C@@H]2C(=O)O[C@@H]1C", "PAMPA (10^-6 cm/s)": "0.62"}
{"smiles": "CC(=O)N1CCC[C@@H]1C(=O)N(C)[C@@H](CC(C)C)C(=O)N[C@@H]1C(=O)N[C@H](CC(C)C)C(=O)N(C)[C@@H](CC(C)C)C(=O)N(C)[C@@H](CC(C)C)C(=O)N(C)[C@@H](C)C(=O)N[C@H](CC(C)C)C(=O)N2CCC[C@H]2C(=O)O[C@@H]1C", "PAMPA (10^-6 cm/s)": "4"}
{"smiles": "CC(=O)N1CCC[C@H]1C(=O)N(C)[C@H](CC(C)C)C(=O)N[C@@H]1C(=O)N[C@H](CC(C)C)C(=O)N(C)[C@H](CC(C)C)C(=O)N[C@H](CC(C)C)C(=O)N(C)[C@H](C)C(=O)N[C@H](CC(C)C)C(=O)N2CCC[C@H]2C(=O)O[C@@H]1C", "PAMPA (10^-6 cm/s)": "5.2"}
{"smiles": "CC(=O)N1CCC[C@@H]1C(=O)N(C)[C@H](CC(C)C)C(=O)N[C@@H]1C(=O)N(C)[C@@H](CC(C)C)C(=O)N[C@@H](CC(C)C)C(=O)N[C@@H](CC(C)C)C(=O)N[C@@H](C)C(=O)N[C@H](CC(C)C)C(=O)N2CCC[C@@H]2C(=O)O[C@@H]1C", "PAMPA (10^-6 cm/s)": "0.002"}
{"smiles": "CC(=O)N1CCC[C@@H]1C(=O)N(C)[C@H](CC(C)C)C(=O)N[C@@H]1C(=O)N[C@@H](CC(C)C)C(=O)N[C@@H](CC(C)C)C(=O)N[C@H](CC(C)C)C(=O)N(C)[C@H](C)C(=O)N[C@H](CC(C)C)C(=O)N2CCC[C@H]2C(=O)O[C@@H]1C", "PAMPA (10^-6 cm/s)": "0.46"}
{"smiles": "CC(=O)N1CCC[C@H]1C(=O)N(C)[C@@H](CC(C)C)C(=O)N[C@@H]1C(=O)N[C@@H](CC(C)C)C(=O)N(C)[C@@H](CC(C)C)C(=O)N(C)[C@@H](CC(C)C)C(=O)N[C@@H](C)C(=O)N[C@@H](CC(C)C)C(=O)N2CCC[C@H]2C(=O)O[C@@H]1C", "PAMPA (10^-6 cm/s)": "0.14"}

Excerpt, the opening 3 entries:

{"smiles": "CC(=O)N1CCC[C@@H]1C(=O)N(C)[C@@H](CC(C)C)C(=O)N[C@@H]1C(=O)N[C@H](CC(C)C)C(=O)N[C@@H](CC(C)C)C(=O)N[C@@H](CC(C)C)C(=O)N(C)[C@@H](C)C(=O)N[C@@H](CC(C)C)C(=O)N2CCC[C@@H]2C(=O)O[C@@H]1C", "PAMPA (10^-6 cm/s)": "1.2"}
{"smiles": "CC(=O)N1CCC[C@H]1C(=O)N(C)[C@H](CC(C)C)C(=O)N[C@@H]1C(=O)N[C@@H](CC(C)C)C(=O)N(C)[C@@H](CC(C)C)C(=O)N[C@@H](CC(C)C)C(=O)N(C)[C@H](C)C(=O)N[C@H](CC(C)C)C(=O)N2CCC[C@H]2C(=O)O[C@@H]1C", "PAMPA (10^-6 cm/s)": "1.7"}
{"smiles": "CC(=O)N1CCC[C@@H]1C(=O)N(C)[C@@H](CC(C)C)C(=O)N[C@@H]1C(=O)N[C@@H](CC(C)C)C(=O)N(C)[C@@H](CC(C)C)C(=O)N[C@@H](CC(C)C)C(=O)N(C)[C@H](C)C(=O)N[C@@H](CC(C)C)C(=O)N2CCC[C@@H]2C(=O)O[C@@H]1C", "PAMPA (10^-6 cm/s)": "3.5"}

Data: CycPeptMPDB; original report Kelly et al. 2021, doi:10.1021/jacs.0c06115.